# Test results reported in US20120122956A1, “METHODS FOR INHIBITING AN[…] MULTI-ARM POLYMERIC CONJUGATES OF 7-ETHYL-10-HYDROXYCAMPTOTHECIN” (ENZON PHARMACEUTICALS, INC., priority 2009, published 2012).
# Where two headings read alike, the source gives them in different places.
# What was measured:
# [1] = Pharmacokinetics in tumor free Balb/C mice; format: in vivo
# Experimental: Tumor free Balb/C mice were injected with a single injection of 20 mg/kg 4armPEG-Gly-(7-ethyl-10-hydroxycamptothecin) conjugates. At various time points mice were sacrificed and plasma was analyzed for intact conjugates and released 7-ethyl-10-hydroxycamptothecin by HPLC. Pharmacokinetic analysis was done using non-compartmental analysis (WinNonlin).
# Pharmacokinetics in rats = format: in vivo
# Experimental: Additionally, pharmacokinetic profiles of 4arm PEG-Gly-(7-ethyl-10-hydroxycamptothecin) were investigated in rats. In rats, dose levels of 3, 10 and 30 mg/kg (7-ethyl-10-hydroxycamptothecin equivalent) were used. The pharmacokinetic profiles in rats were consistent with those of mice.
# [2] = buffer, varying pH (FIG. 7)
# [3] = intact conjugate in plasma, single injection 20 mg/kg
# [4] = parent compound (conjugate), rats
substance,measurement,setting,value
^40k4arm-PEG-Gly(20)-(7-ethyl-10-hydroxycamptothecin) [Compound 9],Enterohepatic circulation,"[1]; conjugate, mice",observed
same,terminal elimination half-life,"[1]; conjugate, mice, biphasic profile",18 to 22 h
same,AUC,[1]; [3],"124,000 h*μg/mL"
same,CL,[1]; [3],5.3 mL/h/kg
same,Cmax,[1]; [3],"20,500 μg/mL"
same,Terminal t1/2,[1]; [3],19.3 h
same,Vss,[1]; [3],131 mL/kg
same,elimination half life,"Pharmacokinetics in rats; conjugate, rats, 3, 10 and 30 mg/kg, biphasic clearance",12 to 18 h
same,clearance,Pharmacokinetics in rats; [4],0.35 mL/h/kg
same,estimated volume of distribution at steady state (Vss),Pharmacokinetics in rats; [4],5.49 mL/kg
same,MTD,multiple dose (q2d×5),10 mg/kg
same,Survival/Total,"multiple dose, 10 mg/kg every other day for 10 days, 14 days total",5/5
same,Survival/Total,"multiple dose, 15 mg/kg every other day for 10 days, 14 days total",3/5
same,Survival/Total,"multiple dose, 20 mg/kg every other day for 10 days, 14 days total",0/5
same,MTD,single dose,30 mg/kg
same,Survival/Total,"single dose, 25 mg/kg, monitored 14 days",5/5
same,Survival/Total,"single dose, 30 mg/kg, monitored 14 days",5/5
same,Survival/Total,"single dose, 35 mg/kg, monitored 14 days",4/5
same,rate of 7-ethyl-10-hydroxycamptothecin release,[2],increases with increased pH
